In PubChem BioAssay AID1778 (Sanford-Burnham Center for Chemical Genomics, 2009):
Some of the results follow. Potency and affinity values are given separately. Activity calls are given as the source filed them. No stated cut-off is given here; in the data, active means inhibition above about 50%; inactive means the rest.

The chains behind the UniProt entries cited, without tags or fusion partners. Where a name states a change or a piece, a line headed by the entry shows the natural chain unless it says otherwise.
UniProt P41145: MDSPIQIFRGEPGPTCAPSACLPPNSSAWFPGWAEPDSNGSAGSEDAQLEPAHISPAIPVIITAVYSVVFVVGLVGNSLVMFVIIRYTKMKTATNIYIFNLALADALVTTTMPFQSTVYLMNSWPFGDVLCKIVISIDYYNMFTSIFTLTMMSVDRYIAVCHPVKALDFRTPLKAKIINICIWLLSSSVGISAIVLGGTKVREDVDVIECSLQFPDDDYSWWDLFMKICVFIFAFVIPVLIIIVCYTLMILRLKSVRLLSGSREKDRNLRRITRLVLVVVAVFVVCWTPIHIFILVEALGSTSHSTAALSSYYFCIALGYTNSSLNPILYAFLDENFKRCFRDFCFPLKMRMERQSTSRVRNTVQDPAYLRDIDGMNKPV

Each molecule was assayed against Kappa-type opioid receptor (Homo sapiens) (UniProt P41145) (assay: kappa opioid receptor blockers – cell-based, luminescence, uHTS (AID 1778)). Settings: KOR beta-arrestin recruitment, antagonist mode, at 10 µM, stronger effect = higher value.

| Structure (SMILES) | inhibition |
| --- | --- |
| COc1ccc(CCNC(=O)Cn2c(-c3nonc3N)nc3ccccc32)cc1OC | inactive: -25.8% |
| O=C(Cn1c(SCC(=O)N2CCc3ccccc3C2)nc2ccccc21)NC1CCCC1 | inactive: 21.7% |
| Cn1c(=O)n(CC(=O)NCc2cccnc2)c2ccccc21 | inactive: -33.1% |
| CC1CCCCN1C(=O)CSc1nc2ccccc2n1CC(=O)N1CCc2ccccc21 (configuration not stated) | inactive: -10.4% |
| Cn1c(=O)c2c(nc(NCc3ccccc3)n2CC(=O)NCc2ccccc2)n(C)c1=O | inactive: 24% |
| O=C(Cn1cnc2ccccc21)Nc1cccc([N+](=O)[O-])c1 | inactive: -29.9% |
| Nc1cccc2ccc([As](=O)(O)O)cc12 | inactive: 18.5% |
| CN1C(=O)Cn2c1nc1ccccc12 | inactive: -13.3% |
| CC(C)C[C@H](NC(=O)N1CCn2c1nc1ccccc12)C(=O)N1CCCCC1 | inactive: -29.7% |
| CC(C)CSc1nc2ccccc2n1CC(N)=O | inactive: 7.8% |
| Nc1ncnc2c1ncn2C1OC(CO)C(O)C1N (configuration not stated) | inactive: 3.8% |
| Nc1nonc1-c1nc2ccccc2n1CC(=O)Nc1ccccc1 | inactive: 14.9% |
| CCC(=O)Nc1nnc(/C=C/c2ccc(OC)cc2)s1 | inactive: 23.9% |
| CC(=O)c1ccc(NC(=O)C2CC(=O)Nc3nc4ccccc4n32)cc1 (configuration not stated) | inactive: 14.9% |
| CCN(CC)CCn1c(=N)n(CCOc2ccccc2)c2ccccc21 | inactive: 2.9% |
| CCN(N=Nc1nonc1N)c1nonc1N | inactive: -0.4% |
| CC(C)(C)NC(=O)Cn1c(SCC(=O)NC2CCCC2)nc2ccccc21 | inactive: -0.6% |
| CCN(CC)CCNC(=O)Cn1c(-c2ccccn2)nc2ccccc21 | inactive: -25.2% |
| O=C(CSc1nc2ccccc2n1CC(=O)N1CCCCC1)N1CCCCC1 | inactive: -8.4% |
| Cc1ccc(C(=O)NC(C)c2nc3ccccc3n2CC(=O)Nc2c(C)cc(C)cc2C)cc1 (configuration not stated) | inactive: 28.4% |
| CC(O)c1nc2ccccc2n1CC(=O)N1CCN(c2ccccc2)CC1 (configuration not stated) | inactive: -23.5% |
| CCOCN(C(=O)Cn1c(C(C)O)nc2ccccc21)c1c(C)cccc1CC (configuration not stated) | inactive: 13.5% |
| Cc1ccc(N/C(=N/P(=O)(N2CCOCC2)N2CCOCC2)N2CCOCC2)cc1 | inactive: -6.3% |
| Nc1nonc1-c1nc2ccccc2n1CC(=O)N/N=C\c1ccc(-c2ccc(Cl)cc2)o1 | inactive: -26.1% |

| Structure (SMILES) | inhibition |
| --- | --- |
| CCC(C(=O)NC1CCCCC1)n1c(SCc2ccc(F)cc2)nc2ccncc21 (configuration not stated) | inactive: 26.2% |
| CN(C)C(=O)Cn1c(SCC(=O)Nc2ccc3c(c2)OCO3)nc2ccccc21 | inactive: -10.5% |
| NC(=O)c1cc([N+](=O)[O-])cc([N+](=O)[O-])c1N | inactive: -45.8% |
| Cc1ccc2c(c1)C1CN(C)CCC1N2C(=O)c1ccc(Cl)c(S(=O)(=O)N2CCOCC2)c1 (configuration not stated) | inactive: -16.8% |
| O=C(Nc1ccccc1)N1CCC(n2c(=O)[nH]c3ccccc32)CC1 | inactive: -17.5% |
| CC1CCCN(C(=O)Cn2c(-c3nonc3N)nc3ccccc32)C1 (configuration not stated) | inactive: -13.3% |
| COc1ccc(CNC(=O)CCCCCNC(=O)N2CCn3c2nc2ccccc23)cc1 | inactive: -8.9% |
| CCOc1cc(N2CCOCC2)c(OCC)cc1NC(=O)Cn1cnc2c(=O)n(C)c(=O)n(C)c21 | inactive: -24.7% |
| O=C(Cn1c(NCCO)nc2ccccc21)NCCc1ccccc1 | inactive: -18.7% |
| Cc1ccc(/C=N/NC(=O)Cn2cnc3ccccc32)cc1 | inactive: 9.7% |
| Clc1ccc(Cl)c(NC2=NCC(CBr)S2)c1 (configuration not stated) | inactive: 11.2% |
| CN1CCCC(OC(=O)C(c2ccccc2)c2ccccc2)C1 (configuration not stated) | inactive: -44.7% |
| CCC(C)(C)n1nnnc1CN1CCC(n2c(C)nc3cc(C(F)(F)F)ccc32)CC1 | inactive: -20.5% |
| Cc1nc2cc(F)ccc2n1C1CCN(Cc2nnnn2CCc2ccccc2)CC1 | inactive: -10% |
| CN1CCN(CCN2CCn3c2nc2ccccc23)CC1 | inactive: 10.2% |
| O=C1Cn2c(nc3ccccc32)N1c1cccc(C(F)(F)F)c1 | inactive: -10.9% |
| Cc1ccc(OP(=O)(Nc2nccs2)Oc2ccc(C)cc2)cc1 | inactive: 3.4% |
| COc1ccc(C(=O)CSc2nc3ccccc3n2CC(=O)NC(C)(C)C)cc1 | inactive: -29.6% |
| CCC(=O)N1c2ccc(S(=O)(=O)CCC(=O)N3CCn4c3nc3ccccc34)cc2CC1C (configuration not stated) | inactive: -23.1% |
| Oc1ccccc1CNc1ccccn1 | inactive: 2.4% |
| COCCN1CCn2c(nc3cc([N+](=O)[O-])ccc32)C1 | inactive: 30.2% |
| Nc1ncnc2c1ncn2CCN1CCCCC1 | inactive: 9.7% |
| Cc1c2non([O-])c-2c(C)[n+](=O)[n+]1[O-] | inactive: -13.8% |
